The numbers were not newly measured in US7294687B2, “Parenteral formulations of a peptide for the treatment of systemic lupus erythematosus” (TEVA Pharmaceutical Industries, Ltd., priority 2003, dated 2007), which cites them from elsewhere.

The conditions of the data set: parenteral; cited from earlier work.

Consider “hepta-substituted sulfobutylether β-cyclodextrin [CAPTISOL®]”, for which the “safety when administered parenterally” value is “safe”.
